pEC50, pKi: −log10 of the molar value. Where two headings read alike, the source gives them in different places.
Legend:
[1] = biological target: μ-opioid receptor (Homo sapiens (Human), UniProt P35372); assay: μ-opioid receptor [35S]GTPγS functional assay; conditions: for pEC50 / EC50: read-out: GTPγS μ EC50; for GTPγS μ Emax: relative to the effect elicited by DAMGO; for EC50: bound given in μM
[2] = biological target: T1, κ opioid receptor (Homo sapiens (Human), UniProt P41145); assay: κ-opioid receptor [35S]GTPγS functional assay; conditions: for pEC50 / EC50: read-out: GTPγS κ EC50; for GTPγS κ Emax: relative to the effect elicited by U69,593; for EC50: bound given in μM
[3] = biological target: δ opioid receptor (Homo sapiens (Human), UniProt P41143); assay: δ-opioid receptor [35S]GTPγS functional assay; conditions: for pEC50 / EC50: read-out: GTPγS δ EC50; for GTPγS δ Emax: relative to the effect elicited by met-enkephalin; for EC50: bound given in μM
[4] = biological target: T1, κ opioid receptor; assay: κ-opioid receptor radioligand dose displacement binding assay ([3H]-U69,593); conditions: read-out: Ki κ; binding affinity

Protein sequences, listed by entry. Tags and fused reporters are not part of them.
UniProt P35372, whole entry: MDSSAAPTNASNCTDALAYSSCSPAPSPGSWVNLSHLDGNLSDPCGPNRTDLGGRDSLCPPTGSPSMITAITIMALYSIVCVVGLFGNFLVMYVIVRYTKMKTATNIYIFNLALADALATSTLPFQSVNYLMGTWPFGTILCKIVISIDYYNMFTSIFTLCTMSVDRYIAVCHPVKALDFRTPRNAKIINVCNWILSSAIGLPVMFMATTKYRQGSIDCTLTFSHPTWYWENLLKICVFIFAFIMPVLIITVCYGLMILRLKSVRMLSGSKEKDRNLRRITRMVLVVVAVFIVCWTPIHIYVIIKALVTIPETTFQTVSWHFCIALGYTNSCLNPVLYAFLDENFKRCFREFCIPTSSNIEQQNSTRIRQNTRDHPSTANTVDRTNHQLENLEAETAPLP
UniProt P41145, whole entry: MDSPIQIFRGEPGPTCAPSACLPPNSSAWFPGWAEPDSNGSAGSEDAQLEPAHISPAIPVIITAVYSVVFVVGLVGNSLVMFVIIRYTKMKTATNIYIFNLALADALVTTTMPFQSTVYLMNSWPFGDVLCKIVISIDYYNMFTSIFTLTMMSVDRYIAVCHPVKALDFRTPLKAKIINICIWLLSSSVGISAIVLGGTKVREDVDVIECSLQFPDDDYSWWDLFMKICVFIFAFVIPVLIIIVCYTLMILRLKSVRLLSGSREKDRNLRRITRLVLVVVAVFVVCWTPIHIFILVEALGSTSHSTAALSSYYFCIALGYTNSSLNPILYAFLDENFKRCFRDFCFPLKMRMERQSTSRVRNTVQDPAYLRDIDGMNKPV

| SMILES | pEC50 [1] | GTPγS μ Emax [1] | pEC50 [2] | GTPγS κ Emax [2] | pEC50 [3] | GTPγS δ Emax [3] | EC50 [1] | EC50 [3] | EC50 [2] | pKi [4] |
| --- | --- | --- | --- | --- | --- | --- | --- | --- | --- | --- |
| CO[C@]12CC[C@@]3(C[C@@H]1CNS(=O)(=O)c1ccccc1)[C@H]1Cc4ccc(O)c5c4[C@@]3(CCN1CC1CC1)[C@H]2O5 | 9.09 | 34.25% | 8.89 | 17.75% |  |  |  |  |  |  |
| COC12CC[C@@]3(C[C@@H]1CNC(=O)c1ccccc1C(=O)O)[C@H]1Cc4ccc(O)c5c4[C@@]3(CCN1CC1CC1)[C@H]2O5 | 8.19 | 23.75% | 8.01 | 40.25% | 8.24 | 76.67% |  |  |  |  |
| CO[C@]12CC[C@@]3(C[C@@H]1CNC(=O)[C@@H](N)CC(=O)O)[C@H]1Cc4ccc(O)c5c4[C@@]3(CCN1CC1CC1)[C@H]2O5 |  | −1.00% | 7.31 | 32.67% | 7.67 | 38.00% | > 20 µM |  |  |  |
| CO[C@]12CC[C@@]3(C[C@@H]1CNS(=O)(=O)c1ccc(C)cc1)[C@H]1Cc4ccc(O)c5c4[C@@]3(CCN1CC1CC1)[C@H]2O5 | 8.46 | 12.00% | 8.63 | 20.75% |  |  |  |  |  |  |
| CO[C@]12CC[C@@]3(C[C@@H]1CNC(=O)CN)[C@H]1Cc4ccc(O)c5c4[C@@]3(CCN1CC1CC1)[C@H]2O5 |  |  | 8.42 | 43.00% | 8.47 | 55.67% | > 20 µM |  |  |  |
| CO[C@]12CC[C@@]3(C[C@@H]1CNC(=O)[C@H](CO)NC(C)=O)[C@H]1Cc4ccc(O)c5c4[C@@]3(CCN1CC1CC1)[C@H]2O5 |  |  | 8.58 | 38.00% |  | 0.50 ± 0.50% | > 20 µM | > 20 µM |  |  |
| CO[C@]12CC[C@@]3(C[C@@H]1CNC(=O)[C@@H](N)Cc1ccccc1)[C@H]1Cc4ccc(O)c5c4[C@@]3(CCN1CC1CC1)[C@H]2O5 |  |  | 9.22 | 49.00% |  |  | > 20 µM | > 20 µM |  |  |
| CO[C@]12CC[C@@]3(C[C@@H]1CNC(=O)[C@@H](N)Cc1c[nH]cn1)[C@H]1Cc4ccc(O)c5c4[C@@]3(CCN1CC1CC1)[C@H]2O5 | 5.19 | 18.25% | 8.79 | 35.00% |  |  |  | > 20 µM |  |  |
| CO[C@]12CC[C@@]3(C[C@@H]1CNS(=O)(=O)C(F)(F)F)[C@H]1Cc4ccc(O)c5c4[C@@]3(CCN1CC1CC1)[C@H]2O5 | 8.73 | 39.50% | 8.53 | 28.33% |  |  |  |  |  |  |
| COC12CC[C@@]3(C[C@@H]1CNC(=O)Nc1cccc(C)c1)[C@H]1Cc4ccc(O)c5c4[C@@]3(CCN1CC1CC1)[C@H]2O5 | 8.89 | 34.75% | 8.79 | 35.00% |  |  |  |  |  |  |
| CO[C@]12CC[C@@]3(C[C@@H]1CNC(=O)[C@H](Cc1ccccc1)NC(C)=O)[C@H]1Cc4ccc(O)c5c4[C@@]3(CCN1CC1CC1)[C@H]2O5 | 7.53 | 9.60% |  | −1.00% |  |  |  |  | > 20 µM |  |
| COC12CC[C@@]3(C[C@@H]1CNC(=O)CCCCC(N)=O)[C@H]1Cc4ccc(O)c5c4[C@@]3(CCN1CC1CC1)[C@H]2O5 | 8.33 | 16.25% |  | −0.33% |  |  |  |  | > 20 µM |  |
| COC12CC[C@@]3(C[C@@H]1CNC(=O)Nc1ccccc1)[C@H]1Cc4ccc(O)c5c4[C@@]3(CCN1CC1CC1)[C@H]2O5 | 9.28 | 67.67% | 9.03 | 33.00% |  |  |  |  |  |  |
| CO[C@]12CC[C@@]3(C[C@@H]1CNS(C)(=O)=O)[C@H]1Cc4ccc(O)c5c4[C@@]3(CCN1CC1CC1)[C@H]2O5 | 8.62 | 12.00% |  |  |  |  |  |  | > 20 µM |  |
| CO[C@]12CC[C@@]3(C[C@@H]1CNC(=O)c1c[nH]c4ccccc14)[C@H]1Cc4ccc(O)c5c4[C@@]3(CCN1CC1CC1)[C@H]2O5 | 8.85 | 33.50% | 8.78 | 14.67% |  |  |  |  |  | 9.96 |
| CO[C@]12CC[C@@]3(C[C@@H]1CNC(=O)[C@@H](N)Cc1ccc(O)cc1)[C@H]1Cc4ccc(O)c5c4[C@@]3(CCN1CC1CC1)[C@H]2O5 |  |  | 8.36 |  |  |  | > 20 µM |  |  |  |

— patent US8969358B2, “Buprenorphine analogs” (dated 2015)
